These results are taken from article PMC6992361 (Molecular cancer therapeutics, 2019).

Sequences of proteins named here, by UniProt entry; tags and fusion partners are left off. Residues count along the entry.
UniProt P35918, 20-1345: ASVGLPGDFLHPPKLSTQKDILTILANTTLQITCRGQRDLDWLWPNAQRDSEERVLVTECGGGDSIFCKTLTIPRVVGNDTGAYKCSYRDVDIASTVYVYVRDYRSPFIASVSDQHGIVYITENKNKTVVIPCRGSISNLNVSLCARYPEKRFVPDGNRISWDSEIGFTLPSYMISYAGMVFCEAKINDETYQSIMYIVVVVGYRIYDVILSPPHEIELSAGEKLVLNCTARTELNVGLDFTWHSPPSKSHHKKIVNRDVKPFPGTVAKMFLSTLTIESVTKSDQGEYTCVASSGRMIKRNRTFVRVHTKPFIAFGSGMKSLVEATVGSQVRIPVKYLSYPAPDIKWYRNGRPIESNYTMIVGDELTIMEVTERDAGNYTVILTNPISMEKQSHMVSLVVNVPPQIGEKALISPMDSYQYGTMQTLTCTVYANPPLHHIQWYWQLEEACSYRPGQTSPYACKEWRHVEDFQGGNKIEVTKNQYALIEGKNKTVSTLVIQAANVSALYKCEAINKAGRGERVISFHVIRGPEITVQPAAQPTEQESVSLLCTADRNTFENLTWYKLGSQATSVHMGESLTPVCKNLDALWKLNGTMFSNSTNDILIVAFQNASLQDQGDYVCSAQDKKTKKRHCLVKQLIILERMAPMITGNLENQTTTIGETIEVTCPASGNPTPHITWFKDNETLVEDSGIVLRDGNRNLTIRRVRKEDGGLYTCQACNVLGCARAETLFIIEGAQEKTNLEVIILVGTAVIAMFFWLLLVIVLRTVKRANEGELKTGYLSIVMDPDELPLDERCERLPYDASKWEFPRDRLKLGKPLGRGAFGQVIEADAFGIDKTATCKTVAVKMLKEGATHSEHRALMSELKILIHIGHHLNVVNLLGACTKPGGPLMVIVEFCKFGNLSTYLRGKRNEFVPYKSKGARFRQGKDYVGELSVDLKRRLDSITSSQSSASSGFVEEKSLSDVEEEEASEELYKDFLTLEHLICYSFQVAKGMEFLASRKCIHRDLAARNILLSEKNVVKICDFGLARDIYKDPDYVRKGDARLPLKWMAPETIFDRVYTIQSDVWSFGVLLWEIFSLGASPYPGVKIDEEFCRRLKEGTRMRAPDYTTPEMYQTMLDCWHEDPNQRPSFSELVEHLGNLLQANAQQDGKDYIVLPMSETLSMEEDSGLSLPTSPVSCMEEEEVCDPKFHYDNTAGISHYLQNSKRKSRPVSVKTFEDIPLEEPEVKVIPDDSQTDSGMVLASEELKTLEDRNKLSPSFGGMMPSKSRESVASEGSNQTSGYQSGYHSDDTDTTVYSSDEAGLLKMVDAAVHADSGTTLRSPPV

The inhibition is how much of the control response was suppressed.

For this test, the target named is murine phosphorylated VEGFR2 (Mus musculus, UniProt P35918). Description: In vivo target inhibition of murine phosphorylated VEGFR2. To be noted: read-out: target inhibition (VEGFR activation).

On to `CCN(CC)CCNC(=O)c1c(C)[nH]c(/C=C2\C(=O)Nc3ccc(F)cc32)c1C` [sunitinib], for which the inhibition at 20 mg/kg worked out at 95%.
